Earlier results, collected in PMC7471432 (Acta Pharmacologica Sinica, 2020).

Key:
[1] = cited from earlier work
[2] = tested on: locomotor activity; conditions: as high as 60 mg/kg; cited from earlier work

Geissoschizine methyl ether [GM]
blood–brain barrier permeability rate relative to rhynchophylline [1]: nearly five fold higher | decrease in locomotor activity [2]: no significant decrease
